## Membrane permeability of cyclic peptides

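The data file gives no further conditions (lipid, pH, time, direction or concentration), and values from different papers need not be comparable. The list need not hold all peptides of the study. Peptides that the database sets to -10, its floor, are left out.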

PAMPA measures passive passage through an artificial lipid membrane. Values are log10 P with P in cm/s, so -5 is more permeable than -7.

SMILES | PAMPA (log10 cm/s)
CC(C)C[C@@H]1NC(=O)CN(CCCOC(C)C)C(=O)[C@H](C)NC(=O)[C@H](CC(C)C)N(C)C(=O)[C@H]2CCCN2C(=O)[C@H](Cc2ccccc2)NC(=O)CN(CC2CCCCC2)C(=O)[C@H](C)NC(=O)[C@H](CC(C)C)N(C)C(=O)[C@H]2CCCN2C1=O | -5.44
CC(C)C[C@@H]1NC(=O)CN(CC2CCOCC2)C(=O)[C@H]2CCCN2C(=O)[C@H](CC(C)C)NC(=O)[C@H](C)N(C)C(=O)[C@H](CC(C)C)NC(=O)CN(Cc2ccc3c(c2)OCO3)C(=O)[C@H]2CCCN2C(=O)[C@H](Cc2ccccc2)NC(=O)[C@H](C)N(C)C1=O | -6.26
CC(C)C[C@@H]1NC(=O)CN(CCCOC(C)C)C(=O)[C@H](C)NC(=O)[C@H](CC(C)C)N(C)C(=O)[C@H]2CCCN2C(=O)[C@H](C)NC(=O)CN(CC2CCOCC2)C(=O)[C@H](C)NC(=O)[C@H](CC(C)C)N(C)C(=O)[C@H]2CCCN2C1=O | -7.44
CC(C)C[C@@H]1NC(=O)CN(CC2CCCCC2)C(=O)[C@H]2CCCN2C(=O)[C@H](CC(C)C)NC(=O)[C@H](C)N(C)C(=O)[C@H](CC(C)C)NC(=O)CN(CCCOC(C)C)C(=O)[C@H]2CCCN2C(=O)[C@H](Cc2ccccc2)NC(=O)[C@H](C)N(C)C1=O | -7.06
CCCCCN1CC(=O)N[C@@H](Cc2ccccc2)C(=O)N2CCC[C@@H]2C(=O)N(C)[C@@H](CC(C)C)C(=O)N[C@@H](C)C(=O)N(Cc2ccc3c(c2)OCO3)CC(=O)N[C@@H](CC(C)C)C(=O)N2CCC[C@@H]2C(=O)N(C)[C@@H](CC(C)C)C(=O)N[C@@H](C)C1=O | -5.77
CC(C)C[C@@H]1NC(=O)CN(CC2CCOCC2)C(=O)[C@H]2CCCN2C(=O)[C@H](CC(C)C)NC(=O)[C@H](C)N(C)C(=O)[C@H](CC(C)C)NC(=O)CN(CCCOC(C)C)C(=O)[C@H]2CCCN2C(=O)[C@H](C)NC(=O)[C@H](C)N(C)C1=O | -5.47
CCCCCN1CC(=O)N[C@@H](CC(C)C)C(=O)N(C)[C@@H](C)C(=O)N[C@@H](C)C(=O)N2CCC[C@@H]2C(=O)N(CCCOC(C)C)CC(=O)N[C@@H](CC(C)C)C(=O)N(C)[C@@H](C)C(=O)N[C@@H](CC(C)C)C(=O)N2CCC[C@@H]2C1=O | -6.09
CCN1CC(=O)N[C@@H](CC(C)C)C(=O)N(C)[C@@H](C)C(=O)N[C@@H](CC(C)C)C(=O)N2CCC[C@@H]2C(=O)N(CC2CCCCC2)CC(=O)N[C@@H](CC(C)C)C(=O)N(C)[C@@H](C)C(=O)N[C@@H](C)C(=O)N2CCC[C@@H]2C1=O | -5.77
CCCCCN1CC(=O)N[C@@H](CC(C)C)C(=O)N(C)[C@@H](C)C(=O)N[C@@H](Cc2ccccc2)C(=O)N2CCC[C@@H]2C(=O)N(CC)CC(=O)N[C@@H](CC(C)C)C(=O)N(C)[C@@H](C)C(=O)N[C@@H](CC(C)C)C(=O)N2CCC[C@@H]2C1=O | -6.11
CCCCCN1CC(=O)N[C@@H](Cc2ccccc2)C(=O)N2CCC[C@@H]2C(=O)N(C)[C@@H](CC(C)C)C(=O)N[C@@H](C)C(=O)N(CCCOC(C)C)CC(=O)N[C@@H](CC(C)C)C(=O)N2CCC[C@@H]2C(=O)N(C)[C@@H](CC(C)C)C(=O)N[C@@H](C)C1=O | -5.30
CCCCCN1CC(=O)N[C@@H](CC(C)C)C(=O)N(C)[C@@H](C)C(=O)N[C@@H](C)C(=O)N2CCC[C@@H]2C(=O)N(CC)CC(=O)N[C@@H](CC(C)C)C(=O)N(C)[C@@H](C)C(=O)N[C@@H](CC(C)C)C(=O)N2CCC[C@@H]2C1=O | -5.55
CC(C)C[C@@H]1NC(=O)CN(Cc2ccc3c(c2)OCO3)C(=O)[C@H](C)NC(=O)[C@H](CC(C)C)N(C)C(=O)[C@H]2CCCN2C(=O)[C@H](Cc2ccccc2)NC(=O)CN(CC2CCCCC2)C(=O)[C@H](C)NC(=O)[C@H](CC(C)C)N(C)C(=O)[C@H]2CCCN2C1=O | -5.95
CC(C)C[C@@H]1NC(=O)CN(CC2CCOCC2)C(=O)[C@H]2CCCN2C(=O)[C@H](CC(C)C)NC(=O)[C@H](C)N(C)C(=O)[C@H](CC(C)C)NC(=O)CN(Cc2ccc3c(c2)OCO3)C(=O)[C@H]2CCCN2C(=O)[C@H](C)NC(=O)[C@H](C)N(C)C1=O | -5.74
CCCCCN1CC(=O)N[C@@H](C)C(=O)N2CCC[C@@H]2C(=O)N(C)[C@@H](CC(C)C)C(=O)N[C@@H](C)C(=O)N(CC)CC(=O)N[C@@H](CC(C)C)C(=O)N2CCC[C@@H]2C(=O)N(C)[C@@H](CC(C)C)C(=O)N[C@@H](C)C1=O | -6.20
CCCCCN1CC(=O)N[C@@H](Cc2ccccc2)C(=O)N2CCC[C@@H]2C(=O)N(C)[C@@H](CC(C)C)C(=O)N[C@@H](C)C(=O)N(CC)CC(=O)N[C@@H](CC(C)C)C(=O)N2CCC[C@@H]2C(=O)N(C)[C@@H](CC(C)C)C(=O)N[C@@H](C)C1=O | -5.30
CCN1CC(=O)N[C@@H](CC(C)C)C(=O)N2CCC[C@@H]2C(=O)N(C)[C@@H](CC(C)C)C(=O)N[C@@H](C)C(=O)N(CC2CCCCC2)CC(=O)N[C@@H](C)C(=O)N2CCC[C@@H]2C(=O)N(C)[C@@H](CC(C)C)C(=O)N[C@@H](C)C1=O | -5.82
CC(C)C[C@@H]1NC(=O)CN(CCCOC(C)C)C(=O)[C@H](C)NC(=O)[C@H](CC(C)C)N(C)C(=O)[C@H]2CCCN2C(=O)[C@H](C)NC(=O)CN(CC2CCCCC2)C(=O)[C@H](C)NC(=O)[C@H](CC(C)C)N(C)C(=O)[C@H]2CCCN2C1=O | -5.78
CCCCCN1CC(=O)N[C@@H](CC(C)C)C(=O)N(C)[C@@H](C)C(=O)N[C@@H](Cc2ccccc2)C(=O)N2CCC[C@@H]2C(=O)N(CCCOC(C)C)CC(=O)N[C@@H](CC(C)C)C(=O)N(C)[C@@H](C)C(=O)N[C@@H](CC(C)C)C(=O)N2CCC[C@@H]2C1=O | -6.59
CCCCCN1CC(=O)N[C@@H](CC(C)C)C(=O)N(C)[C@@H](C)C(=O)N[C@@H](Cc2ccccc2)C(=O)N2CCC[C@@H]2C(=O)N(Cc2ccc3c(c2)OCO3)CC(=O)N[C@@H](CC(C)C)C(=O)N(C)[C@@H](C)C(=O)N[C@@H](CC(C)C)C(=O)N2CCC[C@@H]2C1=O | -7.20
CC(C)C[C@@H]1NC(=O)CN(CC2CCCCC2)C(=O)[C@H]2CCCN2C(=O)[C@H](CC(C)C)NC(=O)[C@H](C)N(C)C(=O)[C@H](CC(C)C)NC(=O)CN(CCCOC(C)C)C(=O)[C@H]2CCCN2C(=O)[C@H](C)NC(=O)[C@H](C)N(C)C1=O | -6.21
CC(C)C[C@@H]1NC(=O)CN(Cc2ccc3c(c2)OCO3)C(=O)[C@H](C)NC(=O)[C@H](CC(C)C)N(C)C(=O)[C@H]2CCCN2C(=O)[C@H](C)NC(=O)CN(CC2CCOCC2)C(=O)[C@H](C)NC(=O)[C@H](CC(C)C)N(C)C(=O)[C@H]2CCCN2C1=O | -6.86
CCCCCN1CC(=O)N[C@@H](C)C(=O)N2CCC[C@@H]2C(=O)N(C)[C@@H](CC(C)C)C(=O)N[C@@H](C)C(=O)N(Cc2ccc3c(c2)OCO3)CC(=O)N[C@@H](CC(C)C)C(=O)N2CCC[C@@H]2C(=O)N(C)[C@@H](CC(C)C)C(=O)N[C@@H](C)C1=O | -5.69
CCCCCN1CC(=O)N[C@@H](CC(C)C)C(=O)N(C)[C@@H](C)C(=O)N[C@@H](C)C(=O)N2CCC[C@@H]2C(=O)N(Cc2ccc3c(c2)OCO3)CC(=O)N[C@@H](CC(C)C)C(=O)N(C)[C@@H](C)C(=O)N[C@@H](CC(C)C)C(=O)N2CCC[C@@H]2C1=O | -6.77
CC(C)C[C@@H]1NC(=O)CN(CC2CCCCC2)C(=O)[C@H]2CCCN2C(=O)[C@H](CC(C)C)NC(=O)[C@H](C)N(C)C(=O)[C@H](CC(C)C)NC(=O)CN(Cc2ccc3c(c2)OCO3)C(=O)[C@H]2CCCN2C(=O)[C@H](C)NC(=O)[C@H](C)N(C)C1=O | -6.97
CC(C)C[C@@H]1NC(=O)CN(CC2CCOCC2)C(=O)[C@H]2CCCN2C(=O)[C@H](CC(C)C)NC(=O)[C@H](C)N(C)C(=O)[C@H](CC(C)C)NC(=O)CN(CCCOC(C)C)C(=O)[C@H]2CCCN2C(=O)[C@H](Cc2ccccc2)NC(=O)[C@H](C)N(C)C1=O | -5.72
CC(C)C[C@@H]1NC(=O)CN(Cc2ccc3c(c2)OCO3)C(=O)[C@H](C)NC(=O)[C@H](CC(C)C)N(C)C(=O)[C@H]2CCCN2C(=O)[C@H](C)NC(=O)CN(CC2CCCCC2)C(=O)[C@H](C)NC(=O)[C@H](CC(C)C)N(C)C(=O)[C@H]2CCCN2C1=O | -5.53
CC(C)C[C@@H]1NC(=O)CN(CCCOC(C)C)C(=O)[C@H](C)NC(=O)[C@H](CC(C)C)N(C)C(=O)[C@H]2CCCN2C(=O)[C@H](Cc2ccccc2)NC(=O)CN(CC2CCOCC2)C(=O)[C@H](C)NC(=O)[C@H](CC(C)C)N(C)C(=O)[C@H]2CCCN2C1=O | -6.48
CCCCCN1CC(=O)N[C@@H](C)C(=O)N2CCC[C@@H]2C(=O)N(C)[C@@H](CC(C)C)C(=O)N[C@@H](C)C(=O)N(CCCOC(C)C)CC(=O)N[C@@H](CC(C)C)C(=O)N2CCC[C@@H]2C(=O)N(C)[C@@H](CC(C)C)C(=O)N[C@@H](C)C1=O | -5.75
CC(C)C[C@@H]1NC(=O)CN(CC2CCCCC2)C(=O)[C@H]2CCCN2C(=O)[C@H](CC(C)C)NC(=O)[C@H](C)N(C)C(=O)[C@H](CC(C)C)NC(=O)CN(Cc2ccc3c(c2)OCO3)C(=O)[C@H]2CCCN2C(=O)[C@H](Cc2ccccc2)NC(=O)[C@H](C)N(C)C1=O | -7.76
CC(C)C[C@@H]1NC(=O)CN(Cc2ccc3c(c2)OCO3)C(=O)[C@H](C)NC(=O)[C@H](CC(C)C)N(C)C(=O)[C@H]2CCCN2C(=O)[C@H](Cc2ccccc2)NC(=O)CN(CC2CCOCC2)C(=O)[C@H](C)NC(=O)[C@H](CC(C)C)N(C)C(=O)[C@H]2CCCN2C1=O | -6.27

Data: CycPeptMPDB; original report Furukawa et al. 2020, doi:10.1002/anie.202004550.